# Measured values as given in PubChem BioAssay (Tox21).
# Protein sequences, listed by entry. Tags and fused reporters are not part of them. Lines headed by an entry give the natural chain unless they say otherwise; changes in a name come on top.
# UniProt P03372, whole entry, looked up: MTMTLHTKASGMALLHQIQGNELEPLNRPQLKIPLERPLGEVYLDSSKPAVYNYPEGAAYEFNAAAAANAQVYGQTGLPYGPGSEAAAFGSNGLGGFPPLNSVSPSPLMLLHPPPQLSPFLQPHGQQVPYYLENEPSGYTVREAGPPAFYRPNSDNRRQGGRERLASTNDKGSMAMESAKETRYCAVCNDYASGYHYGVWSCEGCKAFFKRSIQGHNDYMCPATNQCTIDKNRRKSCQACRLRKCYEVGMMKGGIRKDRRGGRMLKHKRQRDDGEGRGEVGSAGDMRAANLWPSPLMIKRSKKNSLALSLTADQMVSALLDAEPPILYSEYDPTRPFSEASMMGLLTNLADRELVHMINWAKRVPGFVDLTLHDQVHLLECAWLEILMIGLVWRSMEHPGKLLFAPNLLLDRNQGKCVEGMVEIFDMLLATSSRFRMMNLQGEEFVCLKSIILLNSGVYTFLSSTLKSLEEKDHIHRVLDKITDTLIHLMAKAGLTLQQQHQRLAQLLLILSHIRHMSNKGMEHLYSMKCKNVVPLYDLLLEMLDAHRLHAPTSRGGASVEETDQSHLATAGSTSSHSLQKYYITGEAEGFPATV
# UniProt O75469: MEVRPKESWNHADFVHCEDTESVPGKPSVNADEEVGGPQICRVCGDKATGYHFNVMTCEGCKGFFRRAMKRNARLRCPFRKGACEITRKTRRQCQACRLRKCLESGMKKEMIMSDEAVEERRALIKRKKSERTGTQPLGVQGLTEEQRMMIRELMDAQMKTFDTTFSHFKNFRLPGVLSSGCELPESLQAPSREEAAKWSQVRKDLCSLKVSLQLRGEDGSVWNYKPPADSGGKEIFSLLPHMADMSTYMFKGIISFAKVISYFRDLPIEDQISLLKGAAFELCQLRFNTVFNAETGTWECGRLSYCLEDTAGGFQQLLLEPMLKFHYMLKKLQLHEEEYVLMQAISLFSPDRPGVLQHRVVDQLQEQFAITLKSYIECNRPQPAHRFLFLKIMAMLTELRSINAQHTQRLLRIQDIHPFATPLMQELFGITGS
# UniProt Q92731, whole entry, looked up: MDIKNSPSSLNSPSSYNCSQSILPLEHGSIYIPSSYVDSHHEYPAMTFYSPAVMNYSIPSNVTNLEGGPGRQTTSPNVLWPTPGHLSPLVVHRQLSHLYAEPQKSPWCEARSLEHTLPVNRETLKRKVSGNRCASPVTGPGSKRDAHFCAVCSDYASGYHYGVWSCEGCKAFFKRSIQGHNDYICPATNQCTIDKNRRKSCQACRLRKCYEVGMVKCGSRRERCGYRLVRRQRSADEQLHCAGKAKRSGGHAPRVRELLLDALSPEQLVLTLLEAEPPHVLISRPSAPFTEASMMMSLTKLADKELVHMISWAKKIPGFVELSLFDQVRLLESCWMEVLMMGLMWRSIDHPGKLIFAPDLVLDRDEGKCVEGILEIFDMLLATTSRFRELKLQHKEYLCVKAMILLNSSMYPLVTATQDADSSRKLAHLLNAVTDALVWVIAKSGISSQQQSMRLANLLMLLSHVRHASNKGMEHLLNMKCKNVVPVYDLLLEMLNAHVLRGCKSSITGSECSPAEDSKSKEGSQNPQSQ
# UniProt P34981: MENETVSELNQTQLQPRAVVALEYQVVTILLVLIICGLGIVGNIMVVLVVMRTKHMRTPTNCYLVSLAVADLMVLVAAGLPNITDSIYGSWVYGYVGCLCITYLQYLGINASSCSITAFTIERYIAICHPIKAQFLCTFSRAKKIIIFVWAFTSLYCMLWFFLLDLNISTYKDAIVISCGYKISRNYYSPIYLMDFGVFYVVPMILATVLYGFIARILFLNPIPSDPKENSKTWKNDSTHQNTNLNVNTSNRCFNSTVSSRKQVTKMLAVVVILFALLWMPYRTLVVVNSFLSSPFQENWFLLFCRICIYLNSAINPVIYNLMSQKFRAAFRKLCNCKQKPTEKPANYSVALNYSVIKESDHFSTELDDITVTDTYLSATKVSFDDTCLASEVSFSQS
# UniProt Q96RI1: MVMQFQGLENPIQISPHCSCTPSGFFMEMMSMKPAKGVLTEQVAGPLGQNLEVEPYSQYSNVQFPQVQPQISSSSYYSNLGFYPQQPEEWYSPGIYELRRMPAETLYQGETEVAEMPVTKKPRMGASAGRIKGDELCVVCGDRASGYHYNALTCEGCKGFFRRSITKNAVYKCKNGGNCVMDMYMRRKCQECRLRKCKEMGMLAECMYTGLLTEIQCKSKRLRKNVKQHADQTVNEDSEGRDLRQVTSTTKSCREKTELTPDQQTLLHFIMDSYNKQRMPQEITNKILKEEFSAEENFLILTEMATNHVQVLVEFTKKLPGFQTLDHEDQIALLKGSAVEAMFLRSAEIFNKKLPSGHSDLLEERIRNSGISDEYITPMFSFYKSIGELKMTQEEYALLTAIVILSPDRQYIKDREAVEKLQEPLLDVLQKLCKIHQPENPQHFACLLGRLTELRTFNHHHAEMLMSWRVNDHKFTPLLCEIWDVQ
# UniProt P10275: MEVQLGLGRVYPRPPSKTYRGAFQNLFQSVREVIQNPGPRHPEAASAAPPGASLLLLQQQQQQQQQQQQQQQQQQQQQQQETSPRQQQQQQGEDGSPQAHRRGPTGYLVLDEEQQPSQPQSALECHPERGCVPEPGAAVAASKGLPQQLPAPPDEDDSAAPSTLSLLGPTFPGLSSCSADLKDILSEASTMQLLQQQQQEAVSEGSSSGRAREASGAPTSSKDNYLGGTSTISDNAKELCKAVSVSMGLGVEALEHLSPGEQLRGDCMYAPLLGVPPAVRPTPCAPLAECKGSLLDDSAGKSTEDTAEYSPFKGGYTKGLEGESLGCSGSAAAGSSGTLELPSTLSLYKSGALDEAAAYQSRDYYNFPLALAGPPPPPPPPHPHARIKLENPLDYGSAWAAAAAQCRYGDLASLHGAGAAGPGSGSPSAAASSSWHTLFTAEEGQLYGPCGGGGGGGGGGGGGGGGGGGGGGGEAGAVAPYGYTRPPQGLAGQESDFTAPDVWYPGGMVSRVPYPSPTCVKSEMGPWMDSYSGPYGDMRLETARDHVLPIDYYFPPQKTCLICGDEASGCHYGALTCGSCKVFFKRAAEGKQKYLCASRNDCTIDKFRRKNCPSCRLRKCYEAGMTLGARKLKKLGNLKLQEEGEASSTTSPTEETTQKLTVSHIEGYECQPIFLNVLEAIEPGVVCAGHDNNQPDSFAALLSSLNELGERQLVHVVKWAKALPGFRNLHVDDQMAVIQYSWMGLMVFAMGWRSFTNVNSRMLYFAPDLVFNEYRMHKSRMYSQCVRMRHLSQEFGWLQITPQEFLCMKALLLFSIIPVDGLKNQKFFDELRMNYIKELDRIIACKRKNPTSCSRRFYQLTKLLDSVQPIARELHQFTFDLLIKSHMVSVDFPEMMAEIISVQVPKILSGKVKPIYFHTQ
# UniProt P22303: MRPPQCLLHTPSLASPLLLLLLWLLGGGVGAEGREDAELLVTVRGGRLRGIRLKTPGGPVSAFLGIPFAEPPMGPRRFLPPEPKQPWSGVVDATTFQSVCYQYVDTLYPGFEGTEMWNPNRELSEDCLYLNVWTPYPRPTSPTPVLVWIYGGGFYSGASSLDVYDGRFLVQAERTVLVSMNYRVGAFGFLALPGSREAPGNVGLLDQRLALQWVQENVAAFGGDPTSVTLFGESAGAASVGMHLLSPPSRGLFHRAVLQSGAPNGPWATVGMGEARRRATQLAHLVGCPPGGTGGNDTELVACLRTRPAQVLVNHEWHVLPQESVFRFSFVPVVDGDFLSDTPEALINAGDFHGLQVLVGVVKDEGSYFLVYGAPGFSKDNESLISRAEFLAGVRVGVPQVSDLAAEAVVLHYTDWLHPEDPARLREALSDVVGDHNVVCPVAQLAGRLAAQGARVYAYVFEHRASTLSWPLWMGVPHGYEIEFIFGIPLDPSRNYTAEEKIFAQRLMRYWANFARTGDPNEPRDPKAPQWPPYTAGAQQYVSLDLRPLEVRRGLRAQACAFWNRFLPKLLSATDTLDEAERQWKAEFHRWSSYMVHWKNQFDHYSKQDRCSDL
# UniProt Q12809: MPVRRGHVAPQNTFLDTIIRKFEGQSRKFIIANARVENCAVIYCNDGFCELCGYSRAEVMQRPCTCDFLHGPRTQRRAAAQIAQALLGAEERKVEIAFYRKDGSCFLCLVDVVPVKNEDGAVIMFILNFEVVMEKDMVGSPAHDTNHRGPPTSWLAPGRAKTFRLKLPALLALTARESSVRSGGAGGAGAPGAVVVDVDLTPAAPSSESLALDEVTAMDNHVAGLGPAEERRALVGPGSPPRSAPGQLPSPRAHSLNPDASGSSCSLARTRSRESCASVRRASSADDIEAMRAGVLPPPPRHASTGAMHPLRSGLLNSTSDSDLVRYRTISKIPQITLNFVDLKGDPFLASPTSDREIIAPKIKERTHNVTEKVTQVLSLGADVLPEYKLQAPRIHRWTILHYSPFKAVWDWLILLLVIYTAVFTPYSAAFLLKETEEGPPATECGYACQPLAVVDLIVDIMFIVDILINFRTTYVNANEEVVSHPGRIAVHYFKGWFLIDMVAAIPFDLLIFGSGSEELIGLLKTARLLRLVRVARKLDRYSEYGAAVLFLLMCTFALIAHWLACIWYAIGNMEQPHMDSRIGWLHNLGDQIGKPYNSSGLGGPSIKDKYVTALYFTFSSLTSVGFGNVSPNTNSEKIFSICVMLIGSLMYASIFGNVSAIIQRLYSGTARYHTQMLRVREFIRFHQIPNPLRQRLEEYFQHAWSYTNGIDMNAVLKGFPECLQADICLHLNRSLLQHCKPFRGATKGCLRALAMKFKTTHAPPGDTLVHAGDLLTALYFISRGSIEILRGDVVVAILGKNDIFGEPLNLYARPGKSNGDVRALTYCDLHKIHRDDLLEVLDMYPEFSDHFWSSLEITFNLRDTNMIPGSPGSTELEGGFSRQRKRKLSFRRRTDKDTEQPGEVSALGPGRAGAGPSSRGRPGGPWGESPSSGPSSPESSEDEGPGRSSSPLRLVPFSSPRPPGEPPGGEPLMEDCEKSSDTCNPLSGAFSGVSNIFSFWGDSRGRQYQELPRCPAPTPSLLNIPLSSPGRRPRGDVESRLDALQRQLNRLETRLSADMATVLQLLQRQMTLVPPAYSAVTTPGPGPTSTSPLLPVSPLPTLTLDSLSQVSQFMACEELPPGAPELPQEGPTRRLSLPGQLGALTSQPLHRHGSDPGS
# Several values for one entry are separate records, joined by “and”; a condition that tells them apart may be missing. Equal entries are not always repeated. For part of these data: What follows is the remainder of the data, with few or none of the hits. A structure can be active in one record and inactive in another. The list shows a part of the results, in another mix than the full data. Activity calls are given as the source filed them. Unless noted, calls follow the shape of the full dose curve.
# How the values were obtained:
# [1] = target: Estrogen receptor (Homo sapiens) (UniProt P03372); experiment: qHTS assay to identify small molecule agonists of the estrogen receptor alpha (ER-alpha) signaling pathway (AID 743075); conditions: HEK293 ER-alpha-UAS-bla, beta-lactamase FRET ratio, 18 h; series mostly up to 70.1 µM;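 also: HEK293 GripTite cells with ER-alpha and UAS-driven beta-lactamase reporter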; also: potency is read from the fitted curve at half-maximal effect
# [2] = target: Estrogen receptor (Homo sapiens) (UniProt P03372); experiment: qHTS assay to identify small molecule agonists of the estrogen receptor alpha (ER-alpha) signaling pathway in the presence of an antagonist (AID 1259383); conditions: VM7Luc4E2 cells, ERE-luciferase, +ICI-182,780, 22 h; also: top concentration of the series differs between compounds; % is scaled to controls: 0 for no effect and ±100 for the full control effect; nearly all actives have a fitted effect of over 15% in size
# [3] = target: Nuclear receptor subfamily 1 group I member 2 (Homo sapiens) (UniProt O75469); experiment: Human pregnane X receptor (PXR) small molecule agonists, qHTS assay (AID 1346982; active = well fitted curve in the direction sought with a large enough effect in the repeat runs; inconclusive = weak or mixed curves; inactive = no such curve, though single readings can be large; an effect the other way counts as inactive or inconclusive; also: % is scaled to controls: 0 for no effect and ±100 for the full control effect; nearly all actives have a fitted effect of over 35% in size); conditions: PXR-Luc HepG2, CYP3A4 luciferase reporter, 24 h; series mostly up to 92.4 µM
# Outline: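 Luciferase signal from ONE-Glo (30 min, room temperature) measured activation of hPXR-driven CYP3A4 reporter expression in PXR-Luc HepG2 cells treated with compounds for 24 hr at 37 C.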
# [4] = target: Estrogen receptor (Homo sapiens) (UniProt P03372); experiment: qHTS assay to identify small molecule antagonists of the estrogen receptor alpha (ER-alpha) signaling pathway (AID 743069; active = well fitted curve in the direction sought with a large enough effect in the signal ratio in the repeat runs, not every such curve was filed as active; inconclusive = weak or mixed curves, or effect the other way; inactive = no such curve, though single readings can be large or run the other way; the % refers to the signal ratio; also: % is scaled to controls: 0 for no effect and ±100 for the full control effect); conditions: HEK293 ER-alpha-UAS-bla, beta-lactamase ratio, antagonist mode
# [5] = target: Estrogen receptor (Homo sapiens) (UniProt P03372); experiment: qHTS assay to identify small molecule antagonists of the estrogen receptor alpha (ER-alpha) signaling pathway using the BG1 cell line in the presence of 0.1 nM 17-beta-estradiol (AID 1259244; active = well fitted curve in the direction sought with a large enough effect in the repeat runs; inconclusive = weak or mixed curves; inactive = no such curve, though single readings can be large; an effect the other way counts as inactive or inconclusive; also: % is scaled to controls: 0 for no effect and ±100 for the full control effect; nearly all actives have a fitted effect of over 50% in size); conditions: VM7Luc4E2 (BG1) ERE-luciferase, antagonist mode, 0.1 nM E2, 22 h; series mostly up to 92.4 µM
# [6] = target: Estrogen receptor beta (Homo sapiens) (UniProt Q92731); experiment: qHTS assay to identify small molecule antagonists of the estrogen receptor beta (ER-beta) signaling pathway (AID 1259378; active = well fitted inhibition curve with a large enough effect in the signal ratio in the repeat runs, not every such curve was filed as active; inconclusive = weak or mixed curves, or effect the other way; inactive = no such curve, though single readings can be large or run the other way; the % refers to the signal ratio; also: % is scaled to controls: 0 for no effect and ±100 for the full control effect); conditions: ER-beta-UAS-bla HEK293T, beta-lactamase FRET ratio, 16 h; series mostly up to 92.4 µM
# Outline: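 Antagonist mode: compounds added to beta-lactamase reporter HEK293T ER-beta-UAS cells stimulated with E2 (1nM final), 16 hr at 37C. LiveBLAzer B/G FRET substrate, 2 hours room temperature, fluorescence read-out.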
# [7] = target: Thyrotropin-releasing hormone receptor (Homo sapiens) (UniProt P34981); experiment: qHTS assay to identify small molecule antagonists of the thyrotropin-releasing hormone receptor (TRHR) signaling pathway (AID 1346877; active = well fitted inhibition curve with a large enough effect in the repeat runs, not every such curve was filed as active; inconclusive = weak or mixed curves; also: % is scaled to controls: 0 for no effect and ±100 for the full control effect); conditions: TRHR-HEK293, TRH-induced calcium fluorescence, antagonist mode; at 23.6 µM (top of the series) unless noted
# [8] = target: Estrogen receptor (Homo sapiens) (UniProt P03372); experiment: qHTS assay to identify small molecule agonists of the estrogen receptor alpha (ER-alpha) signaling pathway using the BG1 cell line (AID 743079; active = well fitted curve in the direction sought with a large enough effect in the repeat runs; inconclusive = weak or mixed curves; inactive = no such curve, though single readings can be large; an effect the other way counts as inactive or inconclusive; also: % is scaled to controls: 0 for no effect and ±100 for the full control effect; nearly all actives have a fitted effect of over 20% in size); conditions: BG1Luc4E2 cells, ERE-luciferase agonist, 22 h
# [9] = target: Bile acid receptor (Homo sapiens) (UniProt Q96RI1); experiment: qHTS assay to identify small molecule antagonists of the farnesoid-X-receptor (FXR) signaling pathway (AID 743217; active = well fitted inhibition curve with a large enough effect in the signal ratio in the repeat runs, not every such curve was filed as active; inconclusive = weak or mixed curves, or effect the other way; inactive = no such curve, though single readings can be large or run the other way; the % refers to the signal ratio; also: % is scaled to controls: 0 for no effect and ±100 for the full control effect); conditions: HEK293T FXR-UAS-bla, beta-lactamase ratio, CDCA-stimulated, 16 h; at 81.1 µM (top of the series) unless noted
# Outline: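 HEK 293T FXR-UAS-bla, 5000 cells/well; compound + CDCA 50 uM final; 16 h, 37 °C; B/G FRET substrate 2 h RT; fluorescence.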
# [10] = target: Bile acid receptor (Homo sapiens) (UniProt Q96RI1); experiment: qHTS assay to identify small molecule agonists of the farnesoid-X-receptor (FXR) signaling pathway (AID 743220; active = well fitted activation curve with a large enough effect in the signal ratio in the repeat runs, not every such curve was filed as active; inconclusive = weak or mixed curves, or effect the other way; the % refers to the signal ratio; also: % is scaled to controls: 0 for no effect and ±100 for the full control effect); conditions: HEK293T FXR-UAS-bla, beta-lactamase FRET ratio, 16 h; at 62.6 µM (top of the series) unless noted
# [11] = qHTS assay to identify small molecule antagonists of the retinoic acid receptor (RAR) signaling pathway (AID 1159552; active = well fitted curve in the direction sought with a large enough effect in the repeat runs; inconclusive = weak or mixed curves; inactive = no such curve, though single readings can be large; an effect the other way counts as inactive or inconclusive; also: % is scaled to controls: 0 for no effect and ±100 for the full control effect; nearly all actives have a fitted effect of over 50% in size); conditions: C3RL4 RARE luciferase reporter, retinol-stimulated, 6 h; series mostly up to 92.4 µM
# Outline: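 Luminescence from a RARE luciferase reporter in C3RL4 cells served as read-out. Cells received compounds together with 1 uM final retinol and incubated 6 hr at 37 C before detection reagent was added for 30 min at room temperature.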
# [12] = qHTS assay to identify small molecule agonists of the estrogen receptor alpha (ER-alpha) signaling pathway in the presence of an antagonist - cell viability counter screen (AID 1259386; active = well fitted curve in the direction sought with a large enough effect in the repeat runs; inconclusive = weak or mixed curves; inactive = no such curve, though single readings can be large; an effect the other way counts as inactive or inconclusive;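 also: cells exposed to compounds for 22 h at 37 °C before the viability read; % is scaled to controls: 0 for no effect and ±100 for the full control effect; nearly all actives have a fitted effect of over 30% in size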); conditions: VM7Luc4E2 viability, CellTiter-Fluor fluorescence, 22 h; at 92.4 µM (top of the series)
# Outline: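 VM7Luc4E2, stripped-serum pre-culture 5 d; 24hr plating; +ICI-182,780 10.0nM final; cpds 15 conc, 22hr, 37C/5% CO2; CellTiter-Fluor added at 21hr, fluorescence 1hr later.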
# [13] = target: Androgen receptor (Homo sapiens) (UniProt P10275); experiment: qHTS assay to identify small molecule antagonists of the androgen receptor (AR) signaling pathway (AID 743035; active = well fitted inhibition curve with a large enough effect in the signal ratio in the repeat runs, not every such curve was filed as active; inconclusive = weak or mixed curves, or effect the other way; inactive = no such curve, though single readings can be large or run the other way; the % refers to the signal ratio; also: potency is read from the fitted curve at half-maximal effect); conditions: HEK293 AR-UAS-bla, R1881-stimulated, beta-lactamase FRET, 16 h; series mostly up to 58.5 µM
# [14] = target: Androgen receptor (Homo sapiens) (UniProt P10275); experiment: qHTS assay to identify small molecule agonists of the androgen receptor (AR) signaling pathway using the MDA cell line (AID 743040; active = well fitted curve in the direction sought with a large enough effect in the repeat runs; inconclusive = weak or mixed curves; inactive = no such curve, though single readings can be large; an effect the other way counts as inactive or inconclusive; also: % is scaled to controls: 0 for no effect and ±100 for the full control effect; nearly all actives have a fitted effect of over 20% in size); conditions: MDA-kb2 AR-luc cells, MMTV luciferase, 16 h, active compounds read high; at 70.3 µM (top of the series) unless noted
# [15] = target: Androgen receptor (Homo sapiens) (UniProt P10275); experiment: qHTS assay to identify small molecule antagonists of the androgen receptor (AR) signaling pathway using the MDA cell line (AID 743042; active = well fitted curve in the direction sought with a large enough effect in the repeat runs; inconclusive = weak or mixed curves; inactive = no such curve, though single readings can be large; an effect the other way counts as inactive or inconclusive; also: potency is read from the fitted curve at half-maximal effect; nearly all actives have a fitted effect of over 55% in size); conditions: MDA-kb2 AR-luc, MMTV luciferase, R1881 antagonist, 16 h; series mostly up to 70.3 µM
# [16] = target: Androgen receptor (Homo sapiens) (UniProt P10275); experiment: qHTS assay to identify small molecule antagonists of the androgen receptor (AR) signaling pathway using the MDA cell line in the presence of 0.5 nM R1881 (AID 1259243; active = well fitted curve in the direction sought with a large enough effect in the repeat runs; inconclusive = weak or mixed curves; inactive = no such curve, though single readings can be large; an effect the other way counts as inactive or inconclusive; also: potency is read from the fitted curve at half-maximal effect; nearly all actives have a fitted effect of over 50% in size); conditions: MDA-kb2 MMTV-luciferase, R1881 0.5 nM, 16 h; series mostly up to 42.5 µM
# [17] = target: Androgen receptor (Homo sapiens) (UniProt P10275); experiment: qHTS assay to identify small molecule agonists of the androgen receptor (AR) signaling pathway in the presence of an antagonist (AID 1259381); conditions: MDA-kb2 MMTV-luciferase, AR agonist + nilutamide, 16 h; also: % is scaled to controls: 0 for no effect and ±100 for the full control effect; nearly all actives have a fitted effect of over 15% in size
# [18] = target: Acetylcholinesterase (Homo sapiens) (UniProt P22303); experiment: Acetylcholinesterase (AChE) small molecule antagonists: enzyme-based qHTS assay (AID 1347397); conditions: Potency: AChE enzyme activity inhibition; series mostly up to 53 µM; also: potency is read from the fitted curve at half-maximal effect; nearly all actives have a fitted effect of over 55% in size
# Outline: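 rhAChE 50 mU/mL (dispensed) + cpd or DMSO, 30 min RT; add DTNB/acetylthiocholine cocktail, 10 min RT; colorimetric thiocholine readout. qHTS, 1536-well format.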
# [19] = target: Acetylcholinesterase (Homo sapiens) (UniProt P22303); experiment: Acetylcholinesterase (AChE) small molecule antagonists: fluorescence cell-based qHTS assay (AID 1347398); conditions: SH-SY5Y cells; Potency: AChE activity; series mostly up to 53.7 µM; also: potency is read from the fitted curve at half-maximal effect; nearly all actives have a fitted effect of over 50% in size
# Outline: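 Read-out is Thiolite Green fluorescence at Ex/Em = 490/520 nm, formed by reaction with thiocholine released when cellular AChE in SH-SY5Y cells hydrolyzes acetylthiocholine. Compounds were preincubated 30 min at 37 C before substrate.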
# [20] = target: Acetylcholinesterase (Homo sapiens) (UniProt P22303); experiment: Acetylcholinesterase (AChE) small molecule antagonists: enzyme-based qHTS assay with human liver microsomes (AID 1347399); conditions: Potency: qHTS inhibition; series mostly up to 53 µM; also: potency is read from the fitted curve at half-maximal effect; nearly all actives have a fitted effect of over 60% in size
# Outline: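 Recombinant human AChE (50 mU/mL in the enzyme mix) and human liver microsomes (0.25 mg/mL final) were preincubated with compound and NADPH (0.25 mg/mL final) for 30 min at 37 C. Acetylthiocholine/DTNB was then added; thiocholine was read colorimetrically after 10 min at room temperature.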
# [21] = target: Voltage-gated inwardly rectifying potassium channel KCNH2 (Homo sapiens) (UniProt Q12809); experiment: Human Ether-a-go-go-Related Gene (hERG) channel small molecule antagonists: fluorescence cell-based qHTS assay (AID 1671200; active = well fitted curve in the direction sought with a large enough effect in the repeat runs; inconclusive = weak or mixed curves; inactive = no such curve, though single readings can be large; an effect the other way counts as inactive or inconclusive); conditions: hERG-U2OS cells, FluxOR thallium flux fluorescence
# Outline: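 Read-out: thallium influx as a surrogate for potassium, tracked as fluorescence (480 nm ex/540 nm em) every second for 2 min after Stimulus Buffer addition in dye-loaded hERG-U2OS cells.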
smiles,measurement,setting,value
CCCCCCCCCCn1cc[n+](C)c1,Potency,[1],active: 13800 nM [inconclusive]
same,activation,[2]; at 92.4 µM (top of the series),inactive: -11.1% [middle of 6 runs]
CC(=O)[O-].CC(=O)[O-].[Co+2],Potency,[3],inactive
C[N+]1(C)[C@@H]2CC[C@H]1CC(OC(=O)C(CO)c1ccccc1)C2 (some centres not stated),"activity, negative = inhibition",[4]; at 32.6 µM (top of the series),inactive: 1.11%
same,"activity, negative = inhibition",[4]; at 69.4 µM (top of the series),inactive: 6.44%
same,Potency,[1],inactive
same,Potency,[5],inactive
same,activation,[2]; at 42.5 µM (top of the series),inactive: 0.647%
CC(CC(C(N)=O)(c1ccccc1)c1ccccc1)N(C)C (configuration not stated),Potency,[5],inactive
same,Potency,[6],inactive
same,activation,[2]; at 42.5 µM (top of the series),inactive: -0.0716%
c1ccc2c(c1)Sc1ccccc1N2CC1CN2CCC1CC2 (configuration not stated),"activity, negative = inhibition",[7],inactive: -6.53%
C#CC(O)(C=CCl)CC (configuration not stated),"activity, negative = inhibition",[7],inactive: -0.171%
CNC(C)(C)Cc1ccccc1,"activity, negative = inhibition",[4]; at 32.6 µM (top of the series),inactive: 7.77%
same,Potency,[1],inactive
same,activation,[8]; at 32.5 µM (top of the series),inactive: -14.3%
same,Potency,[5],inactive
same,Potency,[6],inactive
same,activation,[2]; at 42.5 µM (top of the series),inactive: 0.754%
CN(C)C1CSSSC1,"activity change, negative = inhibition",[9],inactive: 7.08% [at 62.6 µM]
same,activation,[10],inactive: 3.74%
same,Potency,[6],inactive
Nc1nc(N)c(N)c(N)n1,"activity, negative = inhibition",[4]; at 79.1 µM (top of the series),inactive: -7.37%
same,Potency,[1],inactive
same,activation,[8]; at 95 µM (top of the series),inactive: 3.01%
same,"activity change, negative = inhibition",[9],inactive: -2.46%
same,Potency,[5],inactive
same,Potency,[6],inactive
same,activation,[2]; at 92.4 µM (top of the series),inactive: 1.47%
CCCCCCCCCCCCN=C(N)N,activation,[1],inactive: -3.02% [at 3.01 µM]
same,"activity, negative = inhibition",[11],inactive: -2.78% [at 3.27 µM]
same,activation,[2]; at 3.27 µM (top of the series),inactive: 1.01%
C[N+]1(CCF)[C@@H]2CC[C@H]1CC(OC(=O)C(O)(c1ccccc1)c1ccccc1)C2 (some centres not stated),Potency,[6],inactive
O=C1C2(Cl)C3(Cl)C4(Cl)C(Cl)(Cl)C5(Cl)C3(Cl)C1(Cl)C5(Cl)C24Cl (configuration not stated),"activity change, negative = cytotoxicity",[12],inactive: -3.84%
OC[P+](CO)(CO)CO,"activity, negative = inhibition",[4]; at 69.4 µM (top of the series),inactive: 7.34%
same,"activity, negative = inhibition",[4]; at 79.1 µM (top of the series),inactive: -6.64%
same,Potency,[1],inactive
same,activation,[8]; at 70.3 µM (top of the series),inactive: 3.49%
same,activation,[8]; at 95 µM (top of the series),inactive: -19.5%
same,Potency,[5],inactive
same,activation,[2]; at 92.4 µM (top of the series),inactive: 0.19% and inactive: 0.305%
Clc1ccc(COC(Cn2ccnc2)c2ccc(Cl)cc2Cl)cc1 (configuration not stated),Potency,[13],active: 23900 nM
same,activity change,[14],inactive: -10.4% and inactive: -11% and inactive: -12.4%
same,Potency,[15],active: 29.8 µM and active: 25.5 µM and active: 54.3 µM
same,Potency,[16],active: 12.8 µM and active: 17.2 µM and active: 13.3 µM
same,activation,[17]; at 42.5 µM (top of the series),inactive: -8.91%
same,activation,[17]; at 92.4 µM (top of the series),inactive: -9.97% and inactive: -10.7%
same,activation,[2]; at 42.5 µM (top of the series),inactive: -0.941%
same,activation,[2]; at 92.4 µM (top of the series),inactive: -14.3% and inactive: -16.1%
CCC(N)Cc1c[nH]c2ccccc12 (configuration not stated),"activity, negative = inhibition",[4]; at 69.4 µM (top of the series),inactive: -7.2%
same,"activity, negative = inhibition",[4]; at 79.1 µM (top of the series),inactive: -1.86%
same,Potency,[1],inactive
Clc1ccc(C(Cn2ccnc2)OCc2csc3c(Cl)cccc23)c(Cl)c1 (configuration not stated),Potency,[1],inactive
O=C(CCC1CCN(Cc2ccccc2)CC1)c1ccc2c(c1)NCCCC2,Potency,[18],active: 1740 nM
same,Potency,[19],active: 617 nM
same,Potency,[20],active: 3090 nM
Cn1cc(C2=C(c3cn(C4CCN(Cc5ccccn5)CC4)c4ccccc34)C(=O)NC2=O)c2ccccc21,Potency,[21],active: 1690 nM
